According to patent US20230346893A1, “Methods and Compositions for Preventing or Minimizing Epithelial-Mesenchymal Transition” (Innovon Pharmaceuticals Inc., priority 2016, published 2023):

Test system: HK-2 cells
Test: TGF-β-induced collagen 1 mRNA expression (EMT marker) in HK-2 cells, quantitative real-time PCR
Assay type: cell-based, human
Conditions: mixture of sodium octanoate and sodium decanoate 500 μM; with albumin and without albumin; n=3
Description: HSA was dissolved in PBS to obtain a concentration of 6.6% (6.6 g/100 ml), and was filtered using a 0.2 μm filter. 75 μl of sodium octanoate or sodium decanoate 10 mM was mixed with 75 μl of HSA 6.6% (without vortex), and incubated 10 min at room temperature. 100 μL of this mixture was used in the assay of Example 4 in a final volume of 1 ml (dilution 1:10).
Analysis was undertaken to determine the effect of various compositions on TGF-β-induced collagen 1 expression, which is a marker of EMT, on immortalized human proximal tubule epithelial cells (HK-2 cells). HK-2 cells were treated with TGF-β (an inducer of EMT) at a concentration of 10 ng/ml. Expression of the EMT marker collagen 1 mRNA was determined by quantitative real-time PCR.
Real-Time PCR was using human TaqMan Gene Expression Assay normalized to human GAPDH endogenous control. Reference is TGF-β1 control (RQ=1). The * and ** mean a p value of 0.05 and 0.01 respectively, compared to reference. Tested concentration of the mixture of sodium octanoate and sodium decanoate is 500 μM. The number of experiments is 3 (n=3).

albumin: Human serum albumin (free fatty acid, naked human albumin, Sigma-Aldrich #A1887)
Collagen 1a1 mRNA expression vs TGF-β1 control (FIG. 2, in words): no impact on collagen expression
